Test results: patent US8263590B2, “Pyrimidine derivatives” (priority 2003, dated 2012)

System: Jurkat T human leukemic cell line
Experiment: In vitro T cell migration assay
Assay type: cell-based
Settings: read-out: T Cell Migration IC50

Compound: CCCS(=O)(=O)c1ccccc1Nc1nc(Nc2cc(N3CCC(N4CCCCC4)CC3)ccc2OC)ncc1Cl
- pIC50: 7.05

pIC50: −log10 of the molar value.
